Reference: patent US12492193B2, “Pyrazole derivatives for the treatment of cystic fibrosis” (Fondazione Istituto Italiano Di Tecnologia, priority 2017, dated 2025)
pEC50: −log10 of the molar value.

Amino acid sequences for entries named in this document (tags omitted). Chains listed by the source or under a name are the forms on record and can include a tag or linker. Residues count along the entry.
UniProt P13569, 1-1480 with tags or gaps DEL508-508: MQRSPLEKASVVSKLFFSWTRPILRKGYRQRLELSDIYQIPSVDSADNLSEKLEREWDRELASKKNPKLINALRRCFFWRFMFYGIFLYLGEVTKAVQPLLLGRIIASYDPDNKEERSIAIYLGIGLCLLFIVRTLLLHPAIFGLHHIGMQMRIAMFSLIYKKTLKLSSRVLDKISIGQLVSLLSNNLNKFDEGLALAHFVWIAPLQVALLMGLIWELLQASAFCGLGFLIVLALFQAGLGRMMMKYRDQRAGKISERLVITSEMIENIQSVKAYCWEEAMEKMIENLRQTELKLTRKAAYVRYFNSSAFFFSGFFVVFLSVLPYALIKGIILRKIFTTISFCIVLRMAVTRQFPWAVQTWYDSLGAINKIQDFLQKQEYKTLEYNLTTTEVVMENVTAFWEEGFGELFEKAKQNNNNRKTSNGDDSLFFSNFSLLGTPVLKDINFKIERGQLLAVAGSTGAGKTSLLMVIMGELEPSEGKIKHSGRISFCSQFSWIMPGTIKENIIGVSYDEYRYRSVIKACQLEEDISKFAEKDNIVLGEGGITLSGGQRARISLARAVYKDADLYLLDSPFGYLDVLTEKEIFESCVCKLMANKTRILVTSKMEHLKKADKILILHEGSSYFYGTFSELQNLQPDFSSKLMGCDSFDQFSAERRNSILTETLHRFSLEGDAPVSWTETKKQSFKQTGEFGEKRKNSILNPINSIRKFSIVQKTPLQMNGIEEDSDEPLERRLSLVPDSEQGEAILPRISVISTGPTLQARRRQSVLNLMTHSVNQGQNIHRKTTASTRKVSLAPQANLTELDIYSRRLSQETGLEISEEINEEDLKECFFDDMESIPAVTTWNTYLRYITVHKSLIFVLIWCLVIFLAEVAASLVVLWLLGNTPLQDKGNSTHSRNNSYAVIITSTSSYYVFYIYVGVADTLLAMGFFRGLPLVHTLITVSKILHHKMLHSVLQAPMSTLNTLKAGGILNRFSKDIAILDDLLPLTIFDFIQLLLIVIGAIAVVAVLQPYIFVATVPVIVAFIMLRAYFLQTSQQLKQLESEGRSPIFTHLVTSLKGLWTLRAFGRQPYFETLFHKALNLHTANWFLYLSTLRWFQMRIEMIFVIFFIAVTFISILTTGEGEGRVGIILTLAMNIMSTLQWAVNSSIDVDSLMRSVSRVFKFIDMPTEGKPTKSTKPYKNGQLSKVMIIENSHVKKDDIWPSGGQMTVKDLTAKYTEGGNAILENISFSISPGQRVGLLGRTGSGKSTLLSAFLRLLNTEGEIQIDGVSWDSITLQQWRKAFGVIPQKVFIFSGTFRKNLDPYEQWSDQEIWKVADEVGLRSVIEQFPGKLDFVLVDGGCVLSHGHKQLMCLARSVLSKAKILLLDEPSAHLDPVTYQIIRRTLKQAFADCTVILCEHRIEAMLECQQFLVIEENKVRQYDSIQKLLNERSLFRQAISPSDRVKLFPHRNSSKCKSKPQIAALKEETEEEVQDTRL

Assays:
mutant CFTR = mutant CFTR (Homo sapiens, UniProt P13569, DEL508-508); assay: Fluorescence (HS-YFP) assay for CFTR activity, corrector assay; assay type: cell-based
F508del-CFTR [1] = biological target: T1, F508del-CFTR (Homo sapiens, UniProt P13569, DEL508-508); assay: Short-circuit current recordings on human bronchial epithelial cells (F508del/F508del); assay type: cell-based; conditions: HBE cells from CF patients (F508del/F508del), 24 hrs treatment; table 3
F508del-CFTR [2] = biological target: T1, F508del-CFTR; conditions: compounds tested at 5.0 μM, 24 hrs, FRT cells expressing F508del-CFTR; table 2

Row | SMILES | pEC50 (mutant CFTR) | activity on HBE cells (ΔICFTR) (F508del-CFTR [1]) | Corrector activity (ΔTEEC) (F508del-CFTR [2])
1 | CCOc1c(Cl)c(C(F)(F)F)nn1-c1cccc(C(=O)N(C)c2ccc3c(c2)OCO3)c1 | 5.70 to 6.00 | + (ΔICFTR<2.0 μA) | + (ΔTEEC<2000 μS)
2 | CN(C(=O)c1cccc(-n2nc(C(F)(F)F)c(C#N)c2OCc2ccc(C(=O)O)cc2)c1)c1ccc2c(c1)OC(F)(F)O2 | > 6.00 |  | 
3 | Cc1nc2cc(F)c(N(C)C(=O)c3cccc(-n4nc(C(F)(F)F)cc4COc4ccc(C(=O)O)cc4)c3)cc2o1 | > 6.00 |  | 
